The chains behind the UniProt entries cited, without tags or fusion partners. Residues count along the entry.
UniProt P06276, 29-602: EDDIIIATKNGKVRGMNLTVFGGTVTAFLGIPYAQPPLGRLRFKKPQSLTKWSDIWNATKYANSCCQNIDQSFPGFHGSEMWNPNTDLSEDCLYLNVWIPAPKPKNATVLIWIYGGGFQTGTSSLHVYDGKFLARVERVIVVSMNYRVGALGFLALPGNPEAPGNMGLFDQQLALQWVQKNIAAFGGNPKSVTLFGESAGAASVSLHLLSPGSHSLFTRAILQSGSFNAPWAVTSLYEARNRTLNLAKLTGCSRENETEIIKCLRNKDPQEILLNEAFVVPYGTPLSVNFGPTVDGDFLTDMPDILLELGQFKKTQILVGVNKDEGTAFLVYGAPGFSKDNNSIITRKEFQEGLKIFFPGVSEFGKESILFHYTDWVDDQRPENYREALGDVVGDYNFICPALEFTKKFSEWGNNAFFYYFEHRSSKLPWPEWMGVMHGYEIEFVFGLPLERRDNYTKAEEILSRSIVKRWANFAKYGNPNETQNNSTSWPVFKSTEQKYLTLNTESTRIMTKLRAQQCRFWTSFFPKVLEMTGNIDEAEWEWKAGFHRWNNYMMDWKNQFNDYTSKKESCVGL

The target of one assay is human recombinant butyrylcholinesterase (huBChE) (Homo sapiens, UniProt P06276). Kind of assay: biochemical.
Conditions: not given
A word on the IC50: it is the midpoint of a concentration-inhibition curve. For the compound `CN(C)CCN(CC1CCCN(C2Cc3ccccc3C2)C1)C(=O)c1ccc2cccnc2c1O` (centres unmarked), the IC50 was 0.0132 ± 0.00061 µM.

The assay is the same for the next values; noted with them: Table 2, formula (II); substrate BTCI 500 μM, 300 s preincubation; read-out: IC50 ± STD (μM) huBChE.
As for `COCCN(CC1CCCN(C2Cc3ccccc3C2)C1)S(=O)(=O)c1cccc(N)c1` (centres unmarked), the IC50 came out at 0.197 ± 0.008 µM.

On to `O=S(=O)(NCC1CCCN(Cc2ccccc2)C1)c1ccc2ccccc2c1` (centres unmarked), for which the IC50 worked out at 0.0569 ± 0.0098 µM.

As for `O=S(=O)(NCC1CCN(Cc2ccccc2)CC1)c1ccc2ccccc2c1`, the IC50 is 0.195 ± 0.017 µM.

Turning to `COCCN(CC1CCN(C2Cc3ccccc3C2)CC1)S(=O)(=O)c1ccc2ccccc2c1`, the IC50 was found to be 0.0525 ± 0.002 µM.

As for `CN(CC1CCCN(Cc2ccccc2)C1)S(=O)(=O)c1ccc2ccccc2c1` (centres unmarked), the IC50 was determined as 0.025 ± 0.0038 µM.

Turning to `COCCN(CC1CCCN(C2Cc3ccccc3C2)C1)S(=O)(=O)c1ccc2ccccc2c1` (centres unmarked), the 50% inhibitory concentration (IC50) is 0.053 ± 0.004 µM.

On to `COCCCN(CC1CCCN(Cc2ccccc2)C1)S(=O)(=O)c1ccc2ccccc2c1` (centres unmarked), for which the IC50 was determined as 0.0144 ± 0.0008 µM.

`COCCN(CC1CCN(Cc2ccccc2)CC1)S(=O)(=O)c1ccc2ccccc2c1`: the IC50 is 0.0394 ± 0.0028 µM.

Take `COCCCN(CC1CCN(Cc2ccccc2)CC1)S(=O)(=O)c1ccc2ccccc2c1`: the IC50 came out at 0.0193 ± 0.0037 µM.

Turning to `COCCCN(CC1CCN(C2Cc3ccccc3C2)CC1)S(=O)(=O)c1ccc2ccccc2c1`, the IC50 amounted to 0.0712 ± 0.0019 µM.

The record behind these values is patent US10071964B2, “Disubstituted piperidines as butyrylcholinesterase inhibitors” (priority 2015, dated 2018).
